## CycPeptMPDB entries from one study

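Conditions beyond the assay type are not listed; see the original paper. Other peptides of the study may be missing here. Peptides that the database sets to -10, its floor, are left out.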

PAMPA is the parallel artificial membrane permeability assay, which has no cells and reads passive diffusion. Permeability is given as log10 of P in cm/s; higher (less negative) is more permeable.

| compound | PAMPA (log10 cm/s) |
|---|---|
| CC(C)C[C@@H]1NC(=O)[C@@H](CC(C)C)N(C)C(=O)C[C@H](Cc2ccccc2)NC(=O)[C@H]2CCCN2C(=O)[C@H](Cc2ccccc2)NC(=O)[C@@H](CC(C)C)N(C)C(=O)[C@@H]2CCCN2C1=O | -5.31 |
| CC(C)C[C@@H]1NC(=O)[C@H](C)N(C)C(=O)[C@@H]2CCCN2C(=O)[C@H](Cc2ccccc2)NC(=O)[C@H](CC(C)C)N(C)C(=O)[C@H]2CCCN2C(=O)CN(Cc2ccccc2)C1=O | -5.32 |
| CC(C)C[C@@H]1C(=O)N2CCC[C@H]2C(=O)N(C)[C@@H](CC(C)C)C(=O)N[C@@H](Cc2ccccc2)C(=O)N2CCC[C@@H]2C(=O)N(C)[C@@H](C)C(=O)N(C)[C@H](CC(C)C)C(=O)N1C | -4.95 |
| CC(C)C[C@@H]1NC(=O)[C@@H]2CCCN2C(=O)[C@@H](CC(C)C)NC(=O)[C@@H](CC(C)C)NC(=O)[C@@H](C)N(C)C(=O)[C@H](Cc2ccccc2)NC1=O | -5.40 |
| CCCN1CC(=O)N[C@@H](CC(C)C)C(=O)N(Cc2ccccc2)CC(=O)N2CCC[C@@H]2C(=O)N[C@@H](CC(C)C)C(=O)N[C@@H](Cc2ccccc2)C1=O | -5.89 |
| CCCN1CC(=O)N(C)[C@@H](CC(C)C)C(=O)N(C)[C@H](CC(C)C)C(=O)N2CCC[C@H]2C(=O)N(C)[C@H](CC(C)C)C(=O)N[C@@H](Cc2ccccc2)C1=O | -4.77 |
| CC(C)C[C@H]1NC(=O)[C@H]2CCCN2C(=O)[C@H](CC(C)C)N(C)C(=O)[C@@H](CC(C)C)NC(=O)C[C@H](Cc2ccccc2)NC(=O)[C@H]2CCCN2C(=O)[C@H](Cc2ccccc2)NC1=O | -5.69 |
| CC(C)C[C@@H]1NC(=O)[C@@H](C)N(C)C(=O)[C@H](Cc2ccccc2)NC(=O)[C@@H](CC(C)C)NC(=O)[C@H]2CCCN2C(=O)[C@H](CC(C)C)N(C)C1=O | -5.72 |
| CC(C)C[C@H]1NC(=O)CN(Cc2ccccc2)C(=O)[C@H](C)N(C)C(=O)[C@@H]2CCCN2C(=O)[C@H](Cc2ccccc2)NC(=O)[C@H](CC(C)C)N(C)C(=O)[C@H]2CCCN2C1=O | -5.32 |
| CC(C)C[C@H]1NC(=O)[C@@H]2CCCN2C(=O)[C@@H](CC(C)C)NC(=O)[C@H](CC(C)C)N(C)C(=O)[C@H](C)N(C)C(=O)[C@H](Cc2ccccc2)NC1=O | -4.88 |
| CC(C)C[C@@H]1C(=O)N[C@@H](Cc2ccccc2)CC(=O)N2CCC[C@@H]2C(=O)N[C@H](CC(C)C)C(=O)N[C@@H](Cc2ccccc2)C(=O)N2CCC[C@@H]2C(=O)N[C@H](C)C(=O)N1C | -6.07 |
| CC(C)C[C@@H]1NC(=O)[C@H](C)NC(=O)[C@H]2CCCN2C(=O)[C@H](Cc2ccccc2)NC(=O)[C@@H](CC(C)C)N(C)C(=O)[C@@H]2CCCN2C(=O)CN(Cc2ccccc2)C1=O | -6.31 |

The 2 lowest values of PAMPA among the entries above:

{"smiles": "CC(C)C[C@@H]1NC(=O)[C@H](C)NC(=O)[C@H]2CCCN2C(=O)[C@H](Cc2ccccc2)NC(=O)[C@@H](CC(C)C)N(C)C(=O)[C@@H]2CCCN2C(=O)CN(Cc2ccccc2)C1=O", "PAMPA (log10 cm/s)": "-6.31"}
{"smiles": "CC(C)C[C@@H]1C(=O)N[C@@H](Cc2ccccc2)CC(=O)N2CCC[C@@H]2C(=O)N[C@H](CC(C)C)C(=O)N[C@@H](Cc2ccccc2)C(=O)N2CCC[C@@H]2C(=O)N[C@H](C)C(=O)N1C", "PAMPA (log10 cm/s)": "-6.07"}

Collected by the curators of CycPeptMPDB (Li et al. 2023) from Townsend et al. 2020, doi:10.26434/chemrxiv.13335941.v1.